The source of these data is PubChem BioAssay AID1893 (NMMLSC, 2009).

The entries are a selection whose mix differs from that of the whole data set. Activity calls are given as the source filed them. Cut-off read from the data, not from the text of the source: active = percent response mostly above about 71% (no sharp cut-off); inactive = mostly below about 38%.

The assay relates to MEKK2 (MAP3K2) mutant PB1 domain binding MEK5, human. The experiment in a line: mutant MEKK2 PB1-MEK5 binding signal retest – biochemical, single concentration, multiplex bead flow cytometry, confirmation (AID 1893).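 Note: higher means compound restores mutant binding toward wildtype level.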 The following applies: Alexa488-MEK5 binding to MEKK2 mutant, at 10 µM, active compounds read high.
With `CCC1=CC2Cc3nc4ccc(Cl)cc4c(N)c3C(C1)C2` (configuration not stated), the percent response was inactive: 31%.
Turning to `CN(CCCl)Cc1cc(Cl)c(NC2=NCCN2)c(Cl)c1`, the percent response was inactive: 10%.
